The results in this text go back to PubChem BioAssay AID2642 (Johns Hopkins Ion Channel Center, 2010).

The chains behind the UniProt entries cited, without tags or fusion partners.
UniProt P51787, whole entry: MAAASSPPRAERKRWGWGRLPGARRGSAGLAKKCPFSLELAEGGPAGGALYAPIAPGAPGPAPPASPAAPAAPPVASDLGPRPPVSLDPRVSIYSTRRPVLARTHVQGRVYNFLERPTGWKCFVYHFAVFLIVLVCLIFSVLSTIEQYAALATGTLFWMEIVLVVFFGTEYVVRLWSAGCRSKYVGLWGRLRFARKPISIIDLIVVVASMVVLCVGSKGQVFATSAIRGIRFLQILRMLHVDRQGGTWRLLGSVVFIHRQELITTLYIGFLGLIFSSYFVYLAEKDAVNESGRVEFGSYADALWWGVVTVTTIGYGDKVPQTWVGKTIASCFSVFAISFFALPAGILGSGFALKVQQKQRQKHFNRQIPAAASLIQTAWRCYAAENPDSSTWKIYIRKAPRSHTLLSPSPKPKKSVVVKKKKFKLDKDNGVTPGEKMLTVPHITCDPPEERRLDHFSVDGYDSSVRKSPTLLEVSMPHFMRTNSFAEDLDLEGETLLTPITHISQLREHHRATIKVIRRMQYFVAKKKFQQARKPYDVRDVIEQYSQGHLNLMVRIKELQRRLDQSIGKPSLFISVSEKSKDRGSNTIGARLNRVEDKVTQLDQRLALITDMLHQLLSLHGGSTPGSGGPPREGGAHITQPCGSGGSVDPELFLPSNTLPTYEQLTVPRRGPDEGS

The entries are a selection whose mix differs from that of the whole data set. Activity calls are given as the source filed them.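 How the source made its calls: active means compounds whose thallium flux B-score, printed positive for inhibition, exceeds three library SD while starting fluorescence stays within three; inactive means the rest.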

In the test the target is Potassium voltage-gated channel subfamily KQT member 1 (Homo sapiens) (UniProt P51787). In words: inhibitors of human KCNQ1 channel, primary screen, cell-based, thallium flux, high-throughput (AID 2642).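 Further: channel opened by potassium depolarization with thallium stimulus after 20 min compound exposure.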 The settings on record: CHO-K1 KCNQ1, FluxOR thallium flux fluorescence, at 10 µM.
Take `COc1ccccc1OP(C)(=O)Nc1cc(Cl)ccc1C` (configuration not stated): the outcome was inactive.

As for `CC(C)NC(=O)NP(=O)(Oc1ccccc1)Oc1ccccc1`, the molecule was called inactive. To `CCN(CC)C(=S)SC(NC=O)C(Cl)(Cl)Cl` (configuration not stated) belongs “inactive”; to `Cc1cc(C)cc(OP(C)(N)=O)c1` (configuration not stated), “inactive”; to `Cc1c2c(nc3ccccc13)SC(C(Cl)Cl)C2` (configuration not stated), “inactive”.

Consider `CCN(CC)CCCOC(=O)C(O)(c1ccccc1)c1ccccc1`, for which the outcome was inactive. To `Cc1cc(=O)[nH]c(N[N+](=O)[O-])n1` belongs “inactive”; to `O=C(OC1CN2CCC1CC2)C12CC3CC(CC(C3)C1)C2` (configuration not stated), “inactive”.

For the molecule `COc1cc(I)ccc1[As](=O)(O)O`, the molecule was classed as inactive. As to `COc1ccc2nc(NP(=O)(c3ccccc3)c3ccccc3)sc2c1`, the molecule was classed as inactive. To `COc1ccc(N/C(=N/P(=O)(N2CCOCC2)N2CCOCC2)N2CCOCC2)cc1` belongs “inactive”. To `CP(=O)(Oc1ccccc1)OC(c1ccccc1)C(F)(F)F` (configuration not stated) belongs “inactive”; to `COP1(=S)c2c(C)nn(CCC#N)c2N=C(c2ccc(F)cc2)N1C` (configuration not stated), “inactive”; to `Cc1cccc(C)c1OP(C)(=O)Nc1ccc(SC(F)(F)F)cc1` (configuration not stated), “inactive”. Under `CP(=O)(Nc1ccc(SC(F)(F)F)cc1)Oc1ccc(Cl)cc1` (configuration not stated) stands “inactive”. As for `Cc1cc(C)cc(OP(C)(=O)Nc2ccc(SC(F)(F)F)cc2)c1` (configuration not stated), the molecule was classed as inactive.

`O=C(Nc1ccncc1[N+](=O)[O-])c1ccc([N+](=O)[O-])cc1[N+](=O)[O-]`: the result was inactive. Under `O=C(COc1ccccc1)OC1CN2CCC1CC2` (configuration not stated) stands “inactive”; under `CP(=O)(NC(=O)Nc1ccccc1)Oc1ccccc1` (configuration not stated), “inactive”. To `CCc1ccc(OP(C)(=O)N2CCN(c3ccc([N+](=O)[O-])cc3)CC2)cc1` (configuration not stated) belongs “inactive”; to `O=C(OC1CN2CCC1CC2)c1cccc([N+](=O)[O-])c1` (configuration not stated), “inactive”.

Regarding `CCOP(C)(=S)SCC(=O)NC(C)C(=O)O` (configuration not stated), the result was inactive. To `CCOC(=O)c1ccc(NP(C)(=O)Oc2ccc(OC)cc2)cc1` (configuration not stated) belongs “inactive”; to `CCOC(=O)c1ccc(NC(=O)C(C)(CCl)SC)cc1` (configuration not stated), “inactive”. To `O=[N+]([O-])c1cc([N+](=O)[O-])c(O)c([N+](=O)[O-])c1.c1ccc(Oc2ccncc2)cc1` belongs “inactive”.

Consider `CCC(C)N(CC(C)C)C(=S)SC(NC(C)=O)C(Cl)(Cl)Cl` (configuration not stated), for which the molecule was classed as inactive. Under `CP(=O)(Nc1ccccn1)Oc1ccc(Cl)cc1` (configuration not stated) stands “inactive”; under `CCOC(=O)Nc1ccc([As](=O)(O)O)c(O)c1`, “inactive”; under `Cc1cc(SC(NC(=O)c2ccccc2)C(Cl)(Cl)Cl)nc(C(C)C)n1` (configuration not stated), “inactive”. Under `CCCCOc1ccc(C(=O)NCC2(N3CCCCC3)CCCCC2)cc1OC` stands “inactive”; under `CP(=S)(Nn1cnnc1)Oc1ccccc1` (configuration not stated), “inactive”; under `CCOC(=O)Nc1cccc([As](=O)(O)O)c1`, “inactive”.

Take `COc1ccccc1OP(C)(=O)Nc1ccccc1` (configuration not stated): the outcome was inactive.

For the molecule `O=P(Nc1ccccn1)(c1cccc2ccccc12)c1cccc2ccccc12`, the call was inactive. As for `Cc1cc(SC(NC=O)C(Cl)(Cl)Cl)ncn1` (configuration not stated), the outcome was inactive.

In the case of `O=[N+]([O-])c1ccc(Nc2ccc(Oc3ccc([N+](=O)[O-])cc3[N+](=O)[O-])cc2)c([N+](=O)[O-])c1`, the result was inactive.

For the molecule `CP(=O)(Nc1ccccc1Br)Oc1ccccc1` (configuration not stated), the molecule was classed as inactive. To `Nc1ccc2c(ccc3cccnc32)n1.O=[N+]([O-])c1cc([N+](=O)[O-])c(O)c([N+](=O)[O-])c1` belongs “inactive”; to `CP(=O)(OC12CC3CC(CC(C3)C1)C2)OC12CC3CC(CC(C3)C1)C2`, “inactive”. To `O=C(Nc1cc([As](=O)(O)O)ccc1O)c1ccccc1` belongs “inactive”; to `CCOC(=O)c1ccc(NP(C)(=O)Oc2ccc(Cl)cc2)cc1` (configuration not stated), “inactive”. To `O=[N+]([O-])c1ncn(CCn2ncnc2[N+](=O)[O-])n1` belongs “inactive”; to `CC(C)(C)C(=O)NC(Sc1ccncn1)C(Cl)(Cl)Cl` (configuration not stated), “inactive”; to `O=C(O)CNc1ccc([As](=O)(O)O)cc1`, “inactive”. As for `O=[N+]([O-])c1cccc(NC2=NCC(CBr)S2)c1` (configuration not stated), the outcome was inactive.

In the case of `COc1ccc(C2=NCC(CBr)S2)cc1` (configuration not stated), the molecule was called inactive. To `COc1ccc(OP(C)(=O)Nc2ccc(Br)cc2)cc1` (configuration not stated) belongs “inactive”. As for `CCN(CC)CC(O)COC(=O)C(O)(c1ccccc1)C1CCCCC1` (configuration not stated), the result was inactive. To `CCc1ccc(OP(C)(=O)Nc2cccnc2)cc1` (configuration not stated) belongs “inactive”; to `CCc1nc2c(n1)c1c(non1O)c1c2no[n+]1[O-]`, “inactive”; to `O=[N+]([O-])c1cc([N+](=O)[O-])c(CCNc2ccccc2)c([N+](=O)[O-])c1`, “inactive”.

On to `Cc1ccc(NP(=O)(Oc2ccccc2)Oc2ccccc2)nc1`, for which the result was inactive. For `CP(=O)(Oc1ccccc1)N1CCOC1=O` (configuration not stated), the outcome was inactive. With `O=C(OCCCN1CCCC1)C(O)(c1ccccc1)C1CCCCC1` (configuration not stated), the result was inactive. As to `O=[N+]([O-])c1cccc2n[nH]nc12`, the result was inactive. Under `CC(=O)N1C2C3N(C(C)=O)C1C1N(C(C)=O)C(C(N1C(C)=O)N3C(C)=O)N2C(C)=O` stands “inactive”; under `COc1ccccc1OP(C)(=O)Nc1c(C)n(C)n(-c2ccccc2)c1=O` (configuration not stated), “inactive”; under `CP(=O)(Nc1ccc(Cl)cc1)Oc1ccc(F)cc1` (configuration not stated), “inactive”. For `CCN(/C(=N/P(=O)(N1CCOCC1)N1CCOCC1)N1CCOCC1)c1ccc(OC)cc1`, the call was inactive.

Regarding `C[N+]1=C2C=CC=CC=C2SC12C([N+](=O)[O-])=CC([N+](=O)[O-])=C[C-]2[N+](=O)[O-]` (configuration not stated), the result was inactive. To `COc1ccccc1OP(C)(=O)Nc1ccccc1Br` (configuration not stated) belongs “inactive”; to `CC(C)(C)c1ccc(OP(C)(=O)O)cc1`, “inactive”. For the molecule `Nc1ccc([As](=O)(O)c2ccc(N)cc2)cc1`, the outcome was inactive.

Turning to `CC1CCN(C(=O)Oc2c(Cl)cc(Cl)c3cccnc23)CC1`, the molecule was classed as inactive.

Regarding `CN(C)C(=O)OCCc1n(C)cc[n+]1C`, the result was inactive.

In the case of `CN(C)C(=O)c1c([N+](=O)[O-])cc([N+](=O)[O-])cc1[N+](=O)[O-]`, the molecule was classed as inactive. To `CC(C)=N/N=C(\N)N[N+](=O)[O-]` belongs “inactive”; to `Cc1ccc(N/C(=N/P(=O)(N2CCOCC2)N2CCOCC2)N2CCOCC2)cc1`, “inactive”; to `COc1ccccc1OP(C)(=O)Nc1ccc(Br)cc1` (configuration not stated), “inactive”. To `NC(=O)c1cc([N+](=O)[O-])cc([N+](=O)[O-])c1N` belongs “inactive”; to `CN1CCCC(OC(=O)C(c2ccccc2)c2ccccc2)C1` (configuration not stated), “inactive”.

As to `Clc1ccc(Cl)c(NC2=NCC(CBr)S2)c1` (configuration not stated), the call was inactive. Under `CN(C)CCOC(=O)C(O)(c1ccccc1)C1CCCC1` (configuration not stated) stands “inactive”; under `Cc1ccc(OP(=O)(Nc2nccs2)Oc2ccc(C)cc2)cc1`, “inactive”. To `COc1ccccc1OP(=O)(Nc1ccc(C)cn1)Oc1ccccc1OC` belongs “inactive”; to `COc1ccc(OP(C)(=O)Nc2ccccn2)cc1` (configuration not stated), “inactive”; to `O=C(NC(Sc1ccncn1)C(Cl)(Cl)Cl)c1ccccc1` (configuration not stated), “inactive”. For `Cc1c2non([O-])c-2c(C)[n+](=O)[n+]1[O-]`, the result was inactive.

`Oc1ccccc1CNc1ccccn1`: the outcome was inactive. `Cc1c(NP(C)(=O)Oc2ccc(C(C)C)cc2)c(=O)n(-c2ccccc2)n1C` (configuration not stated): the molecule was called inactive. Regarding `Nc1cc(N)c2nonc2c1[N+](=O)[O-]`, the call was inactive.

For the molecule `CC(C)CC(=O)NC(Sc1ccc(Cl)cc1)C(Cl)(Cl)Cl` (configuration not stated), the result was inactive. Under `O=[N+]([O-])c1cc([N+](=O)[O-])c(Nc2ccccn2)c([N+](=O)[O-])c1` stands “inactive”. Under `CCc1ccc(OP(C)(=O)O)cc1` stands “inactive”; under `COc1ccccc1OP(C)(=O)Nc1ccc(C)cc1C` (configuration not stated), “inactive”; under `CP(=O)(Nc1ccccn1)Oc1ccccc1` (configuration not stated), “inactive”.

As to `O=P(Nc1nc2ccc(Cl)cc2s1)(c1ccccc1)c1ccccc1`, the outcome was inactive. To `Cc1cc(C)cc(OP(C)(=O)Nc2cccc(C(F)(F)F)c2)c1` (configuration not stated) belongs “inactive”; to `CC(=O)Nc1ccc([As](=O)(O)O)cc1`, “inactive”. On to `O=C(O)c1ccccc1[As](=O)(O)O`, for which the molecule was called inactive.

As to `COc1ccc(OP(C)(=O)Nc2ccccc2Br)cc1` (configuration not stated), the molecule was called inactive. Under `COc1ccccc1OP(C)(=O)Nc1ccc(C)c(C)c1` (configuration not stated) stands “inactive”; under `Cc1ccc(NP(=O)(Oc2ccccc2F)Oc2ccccc2F)nc1`, “inactive”.

Turning to `CN(C(=O)Cc1ccc(Cl)c(Cl)c1)[C@H]1CCCC[C@@H]1N1CCCC1`, the molecule was called inactive. To `Cc1cc(SC(NC(=O)c2ccc(F)cc2)C(Cl)(Cl)Cl)ncn1` (configuration not stated) belongs “inactive”; to `CCOP(=O)(Nc1ccccc1)OCC`, “inactive”; to `Cc1nc2ccc3ccccc3c2o1.O=[N+]([O-])c1cc([N+](=O)[O-])c(O)c([N+](=O)[O-])c1`, “inactive”. Under `CP(=O)(Nc1ccc(Cl)cc1Cl)Oc1ccccc1` (configuration not stated) stands “inactive”; under `CP(=O)(OCCOc1ccccc1)OCCOc1ccccc1`, “inactive”; under `Nc1cccc2ccc([As](=O)(O)O)cc12`, “inactive”. To `CCN(N=Nc1nonc1N)c1nonc1N` belongs “inactive”. `CCOC(=O)NC(Sc1ccccc1)C(Cl)(Cl)Cl` (configuration not stated): the molecule was called inactive. To `Cc1ccc(NP(=O)(Oc2cccc(C)c2)Oc2cccc(C)c2)nc1` belongs “inactive”; to `c1ccc(-c2nn[nH]n2)c(-c2nn[nH]n2)c1`, “inactive”. To `CCNC(=S)/N=C(\N)N[N+](=O)[O-]` belongs “inactive”; to `O=C(NC1CCS(=O)(=O)C1)NP(=S)(Oc1ccccc1)Oc1ccccc1` (configuration not stated), “inactive”; to `COc1ccc(OP(C)(=O)Nc2ccc(SC(F)(F)F)cc2)cc1` (configuration not stated), “inactive”.

Regarding `CCOC(=O)c1ccc(NP(C)(=O)Oc2ccc(F)cc2)cc1` (configuration not stated), the call was inactive.

As to `CCN(CC)CCCOC(=O)C(O)(c1ccccc1)C1CCCCC1` (configuration not stated), the call was inactive. To `CCC(=O)N1C2C3N(C(=O)CC)C1C1N(C(=O)CC)C(C(N1C(=O)CC)N3C(=O)CC)N2C(=O)CC` belongs “inactive”.

With `O=C(OC1CN2CCC1CC2)c1ccccc1` (configuration not stated), the call was inactive.

With `Cc1ccc(OP(=O)(Nc2ccccn2)Oc2ccc(C)cc2)cc1`, the result was inactive. On to `CC(=O)NC(SC(=S)N(CC(C)C)CC(C)C)C(Cl)(Cl)Cl` (configuration not stated), for which the molecule was classed as inactive. On to `COC(=O)c1cc2c(s1)N=C(c1ccccc1)N(C)P2(=O)N1CCOCC1` (configuration not stated), for which the call was inactive. Under `O=[N+]([O-])c1cc([N+](=O)[O-])c(OC2CCCCC2O)c([N+](=O)[O-])c1` (configuration not stated) stands “inactive”; under `CCCCCOc1ccc(NP(C)(=O)Oc2ccc(Cl)cc2Cl)cc1` (configuration not stated), “inactive”.

As to `CN(C)C(=O)Oc1noc2ccccc12`, the outcome was inactive.
